For this assay, the target named is α5β1 integrin of A1-F human foreskin fibroblasts (human (endogenous in A1-F foreskin fibroblasts)) (UniProt P05556). In words: pull-down.

By UniProt entry, the sequences of proteins in these tests, tags left out.
UniProt P05556, whole entry, looked up: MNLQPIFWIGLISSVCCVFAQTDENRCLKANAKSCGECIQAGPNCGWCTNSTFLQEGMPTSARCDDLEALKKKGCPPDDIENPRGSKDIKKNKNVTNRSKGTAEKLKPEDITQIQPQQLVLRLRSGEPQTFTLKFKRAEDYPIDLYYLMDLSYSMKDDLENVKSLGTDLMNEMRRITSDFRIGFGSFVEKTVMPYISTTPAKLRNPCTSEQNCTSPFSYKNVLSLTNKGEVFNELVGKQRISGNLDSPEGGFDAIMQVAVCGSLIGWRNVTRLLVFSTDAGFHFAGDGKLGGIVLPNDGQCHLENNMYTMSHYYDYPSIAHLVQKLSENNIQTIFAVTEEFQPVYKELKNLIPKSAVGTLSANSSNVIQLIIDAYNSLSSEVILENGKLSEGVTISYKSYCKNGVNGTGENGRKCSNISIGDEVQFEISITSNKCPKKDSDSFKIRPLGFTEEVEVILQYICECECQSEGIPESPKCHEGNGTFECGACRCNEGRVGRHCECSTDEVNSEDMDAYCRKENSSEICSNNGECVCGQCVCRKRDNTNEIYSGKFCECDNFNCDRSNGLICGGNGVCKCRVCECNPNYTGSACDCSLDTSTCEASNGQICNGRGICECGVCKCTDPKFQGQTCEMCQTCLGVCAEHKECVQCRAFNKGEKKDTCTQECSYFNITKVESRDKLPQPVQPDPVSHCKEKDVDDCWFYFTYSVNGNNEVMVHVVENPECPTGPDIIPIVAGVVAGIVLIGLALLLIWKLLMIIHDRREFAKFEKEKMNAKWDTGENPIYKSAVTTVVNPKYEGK

On to “70-kD amino-terminal fragment of human plasma fibronectin (domain or fragment)”, for which the percent decrease of α5β1 binding to the 120-kD column was 70%.

The values above are taken from publication PMC2132721.
